Measurements from ChEMBL document CHEMBL3608303, “Discovery of novel potent and selective ligands for 5-HT2A receptor with quinazoline scaffold” (Bioorg Med Chem Lett, 2015).

Sequences of proteins named here, by UniProt entry; tags and fusion partners are left off.
UniProt P28223, whole entry: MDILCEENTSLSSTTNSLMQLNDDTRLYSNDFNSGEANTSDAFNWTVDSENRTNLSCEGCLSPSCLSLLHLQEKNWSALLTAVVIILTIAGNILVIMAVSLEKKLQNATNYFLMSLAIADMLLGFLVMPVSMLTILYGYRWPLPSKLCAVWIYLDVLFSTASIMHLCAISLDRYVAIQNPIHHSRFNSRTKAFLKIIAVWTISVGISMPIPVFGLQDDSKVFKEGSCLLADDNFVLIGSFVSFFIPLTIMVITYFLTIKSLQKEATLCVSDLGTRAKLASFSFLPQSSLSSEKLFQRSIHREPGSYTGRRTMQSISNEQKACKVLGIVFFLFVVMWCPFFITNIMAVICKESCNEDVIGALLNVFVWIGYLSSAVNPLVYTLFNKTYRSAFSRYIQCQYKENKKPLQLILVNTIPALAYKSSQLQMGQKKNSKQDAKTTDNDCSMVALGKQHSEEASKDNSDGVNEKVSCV

Target: 5-hydroxytryptamine receptor 2A (Homo sapiens, UniProt P28223)
Assay: Displacement of [3H]ketanserin hydrochloride from 5-HT2A receptor (unknown origin) expressed in HEK293 cell membranes incubated for 15 mins by liquid scintillation spectrometry relative to control
Design: concentration or dose not given beside the values

Structure (SMILES) | inhibition [%]
OCCN1CCN(c2nc(Nc3ccc(Cl)cc3)c3ccccc3n2)CC1 | > 90
Clc1ccc(Nc2nc(N3CCNCC3)nc3ccccc23)cc1 | > 90
OCCN1CCN(c2nc(Nc3ccc(F)cc3)c3ccccc3n2)CC1 | > 90
OCCN1CCN(c2nc(Nc3ccc(Br)cc3)c3ccccc3n2)CC1 | > 90
